Experimental data from patent publication US5830452A, “Method for enhancing the anti-tumor therapeutic index of interleukin-2” (Chiron Corporation, priority 1994, dated 1998).
Several values for one entry are separate records, joined by “and”; a condition that tells them apart may be missing. Identical values can stand only once.

What was measured:
Meth A tumor = experiment: Schedule dependence in Meth A, Tables 5(A) and 5(B); assay type: in vivo, mice; details: for Number deaths/total treated: i.v. QD×9
Description: (§1) Unmodified IL-2 and PEG (7,000 MW) modified IL-2 (having an apparent molecular weight of 160 kD) were administered to mice who were transplanted with one of three tumor types; Meth A; B 16 melanoma; and Pan-02. The details are more specifically set out in Zimmerman et al., 1989, Cancer Research, 49:6521-6528 which is hereby incorporated by reference in its entirety.
The Meth A model was investigated initially because it was known to be sensitive to IL-2 under a variety of protocols, probably due to the tumor's immunogenic nature. Table 5(A) presents the results of dose-response studies in which unmodified IL-2 was given i..v. once daily for 9 days (QD×9). The maximum dose administered was 12.5 mg/kg/dose (112.5 mg/kg total dose) due to solubility limitations of the IL-2 and iv dosing volume restrictions. This dose level was near the maximum tolerated dose, however, as 1/10 hosts died due to treatment. Complete regressions at the s.c. site of injection were obtained in 3/10 and 4/10 of the animals in the 2 highest dose groups. Further, there were modest dose-dependent anti-tumor effects observed at the 2 lower dose levels, as shown by the TIC % (Table 5(A)).
PEG modified IL-2 (160 kD apparent molecular weight) was also administered to the mice. As shown in Table 5(B), four different treatment schedules were used: Q7D×2, Q4D×3, Q3D×4, and Q2D×5. The 3 total dose levels of 50, 25 or 12.5 mg/kg PEG-IL-2 were based on preliminary single dose studies. A single i.v. dose of PEG-IL-2 at 50, 25 or 12.5 mg/kg was lethal in 5/5, 2/5, or 0/5 Meth A bearing mice, respectively. When these same total doses were divided and delivered by the various schedules, the toxicity of the treatments was schedule dependent. […] The other combinations of dose and schedule were not lethal, with the exception of the 25 mg/kg dose on the Q2D×5 schedule (Table 5(B)). As discussed below, this dependence on the frequency of administration to produce the lethality is related to the minimum plasma concentration of L-2 attained between doses (i.e., the trough).
^a Therapy was initiated 7 days after tumor implant, i.v., daily for
days. Five animals/group/experiment.
^b T/C % calculated as the mean tumor volume of treated animals on da
21/mean tumor volume of control animals on day 21, × 100.
(§2) ^c Treatmentcaused deaths.
^d Complete regressions at the s.c. site of tumor inoculation were
Analysis of Covanance, p set at 0.05.
^f PEGIL-2 was administered i.v. starting 7 days after tumor
inoculation, on the schedules shown. The doses were appropriately divided
in order to deliver the same total dose on the various schedules.

B16 melanoma = experiment: Schedule dependence in B16, Tables 6(A) and 6(B); assay type: in vivo, mice
Description: as §1
As in the Meth A studies, the maximum i.v. dose achievable was 112.5 mg/kg total IL-2 on the QD×9 schedule; however in this case, 6/16 animals died at this dose level. The BDF1 mice used for B16 were more sensitive to IL-2 than the Balb/c Meth A hosts at all but the lowest dose; 1/16, 5/16, and 6/16 died at 45, 90, 112.5 mg/kg, respectively.
The anti-tumor efficacy of PEG-IL-2 was studied at 3 dose levels, 18, 12, or 6 mg/kg total dose. These levels were lower than those studied in Meth A because of the increased sensitivity of the BDF1 hosts to its lethal effects, as noted above. […] Further studies are ongoing in this model to more fully establish the doses and length of treatment which produce the maximum therapeutic benefit.
^a IL2 was administered QD × 9, i.v., beginning 1 day after s.c
tumor implant. Five animals/group in 2 experiments, 6 animals/group in th
^b T C is the tumor growth delay, determined as the mean number of
days for the treated tumor volume to reach 500 mm^3 minus the mean
number of days for the control tumor volumes to reach 500 mm^3. Mean
value given for 3 experiments.
as §2
^e PEGIL2 was given iv starting one day after sc tumor implant.
tumor growth through the last day of observation, day 64. These mice were
excluded from the calculation of T C.
^g Not determined due to excessive toxicity of treatment.

rat fibrosarcoma = experiment: Rat subcutaneous fibrosarcoma anti-tumor efficacy and toxicity; assay type: in vivo, Fisher rats; details: for anti-tumor effect, computer-driven infusion versus single bolus PEG-IL-2: IL-2 48 hours infusion
Description: Four groups of Fisher rats were prepared for the experiment with 4 animals per group as follows:
Total IL-2 dose delivered was 38.4 mg/kg over 48 hours.
Group C: 1.6 mg/kg bolus dose PEG-IL-2 group.
Surgery was performed on all animals in all 4 groups one day prior to the infusions or bolus dose injections. Cannulas were inserted into the femoral vein for infusion and into the jugular vein for blood sampling. Teflon jackets were fitted to the rats to channel the tubing into the pump apparatus and to prevent the animals from dislodging the cannulas. On this same day (one day prior to therapeutic/sham treatment) animals also received fibrosarcoma tumor implants as described below.
The rat fibrosarcoma is a spontaneous solid tumor which is passed as a tumor brei on a bimonthly basis. Tumor brei was maintained frozen in liquid nitrogen in sterile tissue culture medium (RPMI 1640+20% FCS+10% DMSO). A tumor cycle was initiated by thawing a vial of tumor brei and injecting 0.1 ml subcutaneously in the flank of 150 g female Fischer rats. Tumors were passed a minimum of 2 times from frozen before being used in an experiment. A tumor cycle is defined as no greater than 20 passages after which a new vial from the original stock brei is thawed and the cycle restarted. Tumor brei for passage was prepared by excising a 14-18 day tumor, mincing it into ~1 mm^3 pieces and implanting 0.1 ml brie SC in the flank.
The effects of therapy on the rat subcutaneous fibrosarcoma were evaluated by measuring tumor volume in 2 perpendicular directions (L×W^2)2 at selected times over 21-28×(7, 10, 14+21) days.

[1] = 30 mg/kg, Q7D×2, single experiment

With “IL-2: Unmodified interleukin-2, recombinant or natural human; lymphokine, T cell growth factor” the Number deaths/total treated (Meth A tumor; 9 mg/kg total) was 0/10, the T/C % (Meth A tumor; 9 mg/kg total, i.v. QD×9, day 21) was 66.2% and the Complete regressions (Meth A tumor; 9 mg/kg total, i.v. QD×9, day 35) was 1/10. For the same substance, the Number deaths/total treated (Meth A tumor; 45 mg/kg total) was 0/15, the T/C % (Meth A tumor; 45 mg/kg total, i.v. QD×9, day 21) was 22.0% and the Complete regressions (Meth A tumor; 45 mg/kg total, i.v. QD×9, day 35) was 0/15. The Number deaths/total treated (Meth A tumor; 90 mg/kg total) was 0/10, the T/C % (Meth A tumor; 90 mg/kg total, i.v. QD×9, day 21) was 5.3% and the Complete regressions (Meth A tumor; 90 mg/kg total, i.v. QD×9, day 35) was 3/10. For the same substance, the Number deaths/total treated (Meth A tumor; 112.5 mg/kg total) was 1/10, the T/C % (Meth A tumor; 112.5 mg/kg total, i.v. QD×9, day 21) was 6.9% and the Complete regressions (Meth A tumor; 112.5 mg/kg total, i.v. QD×9, day 35) was 4/10 and 4/9. The Number deaths/total treated (B16 melanoma; 9 mg/kg total, i.v. QD×9) was 0/16, the “T - C (tumor growth delay)” value (B16 melanoma; 9 mg/kg total, i.v. QD×9) was 1.5 days and the Number deaths/total treated (B16 melanoma; 45 mg/kg total, i.v. QD×9) was 1/16. For the same substance, the “T - C (tumor growth delay)” value (B16 melanoma; 45 mg/kg total, i.v. QD×9) was 2.6 days, the Number deaths/total treated (B16 melanoma; 90 mg/kg total, i.v. QD×9) was 5/16 and the “T - C (tumor growth delay)” value (B16 melanoma; 90 mg/kg total, i.v. QD×9) was 2.9 days. For the same substance, the Number deaths/total treated (B16 melanoma; 112.5 mg/kg total, i.v. QD×9) was 6/16, the “T - C (tumor growth delay)” value (B16 melanoma; 112.5 mg/kg total, i.v. QD×9) was 3.5 days and the “complete regressions in B16” value (B16 melanoma; i.v. QD×9, even at toxic levels) was “no complete regressions”. The toxicity (rat fibrosarcoma; 2.0 mg/kg/day) was “too toxic”, the “anti-tumor effect, computer-driven infusion versus single bolus PEG-IL-2” value (rat fibrosarcoma) was “no statistically significant difference” and the “bolus versus continuous infusion” value (rat fibrosarcoma; rat fibrosarcoma model) was “confirmed”. For the same substance, the “amount of IL-2 deliverable with peak/trough profile, no incremental toxicity” value (rat fibrosarcoma; same area under the blood clearance curve) was 20 -fold and the MTD (rat fibrosarcoma; ×10) was 1.0 mg/kg/day.

“160 kD PEG IL-2: PEG (7,000 MW) modified IL-2 having an apparent molecular weight of 160 kD” was tested, and the Complete regressions (Meth A tumor; 12.5 mg/kg total, i.v. Q2D×5) was 0/5, the T/C % (Meth A tumor; 12.5 mg/kg total, i.v. Q2D×5) was 20.3% and the Complete regressions (Meth A tumor; 12.5 mg/kg total, i.v. Q3D×4) was 2/5. The T/C % (Meth A tumor; 12.5 mg/kg total, i.v. Q3D×4) was 14.1%, the Complete regressions (Meth A tumor; 12.5 mg/kg total, i.v. Q4D×3) was 0/10 and the T/C % (Meth A tumor; 12.5 mg/kg total, i.v. Q4D×3) was 56.3%. For the same substance, the Complete regressions (Meth A tumor; 12.5 mg/kg total, i.v. Q7D×2) was 3/10, the T/C % (Meth A tumor; 12.5 mg/kg total, i.v. Q7D×2) was 17.9% and the Complete regressions (Meth A tumor; 25 mg/kg total, i.v. Q3D×4) was 2/5. The T/C % (Meth A tumor; 25 mg/kg total, i.v. Q3D×4) was 10.5%, the Complete regressions (Meth A tumor; 25 mg/kg total, i.v. Q4D×3) was 2/10 and the T/C % (Meth A tumor; 25 mg/kg total, i.v. Q4D×3) was 23.9%. For the same substance, the Complete regressions (Meth A tumor; 25 mg/kg total, i.v. Q7D×2) was 8/10, the T/C % (Meth A tumor; 25 mg/kg total, i.v. Q7D×2) was 7.6% and the toxicity by schedule (Meth A tumor; 50 mg/kg total) was “toxicity was observed only on the Q7D×2 and Q2D×5 schedules”. The Complete regressions (Meth A tumor; 50 mg/kg total, i.v. Q3D×4) was 0/5, the T/C % (Meth A tumor; 50 mg/kg total, i.v. Q3D×4) was 7.6% and the Complete regressions (Meth A tumor; 50 mg/kg total, i.v. Q4D×3) was 2/10. The T/C % (Meth A tumor; 50 mg/kg total, i.v. Q4D×3) was 17.4%, the Complete regressions (Meth A tumor; 50 mg/kg total, i.v. Q7D×2) was 5/6 and the T/C % (Meth A tumor; 50 mg/kg total, i.v. Q7D×2) was 49%. The “anti-tumor efficacy compared to unmodified IL-2” value (Meth A tumor; Meth A, B16, and Pan-02, equitoxic doses) was “superior to that of unmodified IL-2”, the lethality (Meth A tumor; Q2D×5 schedule) was roughly 100% and the Number deaths/total treated (B16 melanoma; 6 mg/kg total, i.v. Q3D×4) was 6/10. For the same substance, the “T - C (tumor growth delay)” value (B16 melanoma; 6 mg/kg total, i.v. Q3D×4) was 7.2 days, the Number deaths/total treated (B16 melanoma; 6 mg/kg total, i.v. Q4D×3) was 0/10 and the “T - C (tumor growth delay)” value (B16 melanoma; 6 mg/kg total, i.v. Q4D×3) was 7.2 days. For the same substance, the Number deaths/total treated (B16 melanoma; 6 mg/kg total, i.v. Q7D×2) was 0/16, the “T - C (tumor growth delay)” value (B16 melanoma; 6 mg/kg total, i.v. Q7D×2) was 8.1 days and the Number deaths/total treated (B16 melanoma; 12 mg/kg total, i.v. Q3D×4) was 10/10. For the same substance, the Number deaths/total treated (B16 melanoma; 12 mg/kg total, i.v. Q4D×3) was 1/10, the “T - C (tumor growth delay)” value (B16 melanoma; 12 mg/kg total, i.v. Q4D×3) was 10.1 days and the Number deaths/total treated (B16 melanoma; 12 mg/kg total, i.v. Q7D×2) was 0/16. The “T - C (tumor growth delay)” value (B16 melanoma; 12 mg/kg total, i.v. Q7D×2) was 10.0 days, the “increase in T-C compared to unmodified IL-2, highest non-lethal doses” value (B16 melanoma; 18 mg/kg Q7D×2 vs IL-2 9 mg/kg QD×9) was “over 9 -fold” and the Number deaths/total treated (B16 melanoma; 18 mg/kg total, i.v. Q3D×4) was 10/10. For the same substance, the Number deaths/total treated (B16 melanoma; 18 mg/kg total, i.v. Q4D×3) was 9/10, the Number deaths/total treated (B16 melanoma; 18 mg/kg total, i.v. Q7D×2) was 0/16 and the “T - C (tumor growth delay)” value (B16 melanoma; 18 mg/kg total, i.v. Q7D×2) was 13.6 days. For the same substance, the “complete block of tumor growth (all treated animals)” value (B16 melanoma; 18 mg/kg, Q7D×2) was 3/16, the “mean tumor growth inhibition compared to controls” value (B16 melanoma; 18 mg/kg, Q7D×2, day 28 post-implant) was no less than 95% and the “complete block of tumor growth (third experiment)” value (B16 melanoma; 18 mg/kg, Q7D×2, through day 64) was 3/6 and Three of six. The “efficacy versus 18 mg/kg” value (B16 melanoma; [1]) was “no greater efficacy than with 18 mg/kg”, the lethality (B16 melanoma; [1]) was “no lethality” and the “increase in tumor growth delay (T-C) compared to unmodified IL-2 at lethal doses” value (B16 melanoma; PEG-IL-2 at non-lethal doses) was 2 -fold. The lethality (B16 melanoma; Q4D×3 or Q3D×4 schedule, 18, 12, or 6 mg/kg) was “clear dose-dependent lethality”, the lethality (B16 melanoma; Q7D×2 schedule, 18, 12, or 6 mg/kg) was “did not produce lethality” and the “anti-tumor effect, computer-driven infusion versus single bolus PEG-IL-2” value (rat fibrosarcoma) was “no statistically significant difference”. The “improvement in potency (comparison of total doses delivered)” value (rat fibrosarcoma; rough estimate versus IL-2) was ~20 -fold and the “anti-tumor efficacy compared with IL-2” value (rat fibrosarcoma; versus IL-2 given for 5 or 10 days) was “significantly better than IL-2 given for 5 or 10 days”.
